Biological target: TSPO (Rattus norvegicus (Rat), UniProt P16257)
Assay: In vitro binding affinity, 3H-PK11195 displacement in kidney mitochondria
Conditions: 0.6 nM 3H-PK11195, mitochondria from kidneys of male Wistar rats, 90 min at 4° C.
Procedure: 3H-PK11195 (specific activity 322 GBq/mmol) and 3H-Ro 15-1788 (specific activity 311 GBq/mmol) were purchased from Dupont-New England Nuclear. For binding studies, mitochondria were prepared as described in Trapani G., et al. J Med Chem. 1997; 40:3109-3118, with minor modifications as described here, from the kidneys of male Wistar rats killed by cervical dislocation. The kidneys were homogenized in 20 volumes of ice-cold 50 mM Tris-HCl (pH 7.4), 0.32 M sucrose, and 1 mM ethylenediaminetetraacetic acid (buffer A) containing protease inhibitors (benzamidine at […], bacitracin at […], and soybean trypsin inhibitor at […]) with a Teflon (DuPont) pestle in a glass homogenizer and centrifuged at 600 g for 10 min at 4° C. The resulting supernatant was centrifuged at 10,000 g for 10 min at 4° C. The pellet was suspended in 20 volumes of ice cold buffer A and centrifuged at 10,000 g for 10 min at 4° C. The crude mitochondrial pellet was frozen at −20° C. until the time of the assay or incubated with 0.6 nM 3H-PK11195 in 50 mM Tris-HCl (pH 7.4) (buffer B) with a range of concentrations of the tested compounds (0.1 nM-10 mM) in a total volume of 0.5 mL for 90 min at 4° C. The incubation was terminated by dilution to 5 mL with icecold buffer B; this step was followed immediately by rapid filtration through glass fiber Whatman GF/C filters. The filters were washed (2.5 mL) with buffer B, and the amount of radioactivity retained on the filters was determined with a Packard 1600 TR liquid scintillation counter at 66% efficiency. Nonspecific binding was estimated for each sample in the presence of unlabeled 1 mM PK11195. The 50% inhibitory concentrations were determined, and the dissociation constant (Ki) values were derived according to a previously derived equation (Cheng Y., et al. Biochem Pharmacol. 1973; 22:3099-3108). The protein concentration was estimated by the method of Lowry et al. (J Biol Chem. 1951; 193:265-275) with bovine serum albumin (Sigma-Aldrich) as the standard.

The chains behind the UniProt entries cited, without tags or fusion partners.
UniProt P16257, whole entry, looked up: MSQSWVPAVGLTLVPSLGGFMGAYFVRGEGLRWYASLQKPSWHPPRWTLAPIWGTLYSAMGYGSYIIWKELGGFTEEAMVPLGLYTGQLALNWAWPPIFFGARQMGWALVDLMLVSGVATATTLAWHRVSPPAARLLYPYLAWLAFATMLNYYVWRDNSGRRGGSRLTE

SMILES | Ki
CCN(CC)C(=O)Cc1c(-c2ccc(OCCF)cc2)nc2c(C)cc(C)nn12 | 1.55 nM
CCN(CC)C(=O)Cc1c(-c2ccc(OC)cc2)nc2c(C)cc(C)nn12 | 2.61 nM
CCN(CC)C(=O)Cc1c(-c2ccc(O)cc2)nc2c(C)cc(C)nn12 | 11 nM

— patent publication US8492379B2, “Translocator protein ligands” (The University of Sydney, priority 2007, dated 2013)
